Values joined by “and” are separate entries in the source; they are usually repeats but may differ in a detail not shown here. Identical values can stand only once.
Target: T1, HRP (Armoracia rusticana, UniProt P00433)
T1 sequence (P00433 31-338): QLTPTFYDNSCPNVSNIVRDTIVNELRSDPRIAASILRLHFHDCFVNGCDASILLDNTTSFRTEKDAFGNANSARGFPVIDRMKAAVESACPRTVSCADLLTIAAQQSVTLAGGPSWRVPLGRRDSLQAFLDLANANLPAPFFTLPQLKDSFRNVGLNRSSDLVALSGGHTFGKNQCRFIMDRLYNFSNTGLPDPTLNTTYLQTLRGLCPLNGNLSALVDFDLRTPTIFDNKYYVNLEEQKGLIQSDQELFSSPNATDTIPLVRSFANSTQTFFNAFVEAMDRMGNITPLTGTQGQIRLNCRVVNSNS
Assay: Inhibition of 1 mU of HRP activity using heavy metal salts and other compounds as stop reagents (ABTS, 96-well plate)

## O=S(=O)([O-])[O-].[Cu+2] [(vi), Copper(II) sulfate]
  Absorbance at 405 nm: 1.765 and 1.842 and 1.077 and 1.646 and 1.669 and 1.767 and 1.831
